The text below walks through data of publication PMC4980415 (Psychopharmacology, 2016).

Chains of the proteins cited; added tags and fusions are not shown. Lines headed by an entry give the natural chain unless they say otherwise; changes in a name come on top. Residues count along the entry.
UniProt O76083: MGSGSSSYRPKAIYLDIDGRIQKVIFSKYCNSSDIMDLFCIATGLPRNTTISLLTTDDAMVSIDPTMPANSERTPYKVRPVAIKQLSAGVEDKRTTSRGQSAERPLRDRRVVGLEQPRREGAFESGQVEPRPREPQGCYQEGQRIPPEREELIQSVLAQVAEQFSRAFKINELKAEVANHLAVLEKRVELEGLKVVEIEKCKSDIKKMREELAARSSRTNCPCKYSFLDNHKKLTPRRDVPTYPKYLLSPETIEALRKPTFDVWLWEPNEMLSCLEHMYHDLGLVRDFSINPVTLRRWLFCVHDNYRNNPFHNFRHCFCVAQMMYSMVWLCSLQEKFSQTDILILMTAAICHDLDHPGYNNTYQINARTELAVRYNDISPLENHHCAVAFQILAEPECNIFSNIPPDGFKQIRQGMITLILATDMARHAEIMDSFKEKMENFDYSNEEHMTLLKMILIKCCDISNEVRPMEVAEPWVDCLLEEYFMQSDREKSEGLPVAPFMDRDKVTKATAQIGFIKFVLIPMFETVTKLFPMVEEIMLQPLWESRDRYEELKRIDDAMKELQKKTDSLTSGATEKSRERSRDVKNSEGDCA
UniProt O00408, whole entry: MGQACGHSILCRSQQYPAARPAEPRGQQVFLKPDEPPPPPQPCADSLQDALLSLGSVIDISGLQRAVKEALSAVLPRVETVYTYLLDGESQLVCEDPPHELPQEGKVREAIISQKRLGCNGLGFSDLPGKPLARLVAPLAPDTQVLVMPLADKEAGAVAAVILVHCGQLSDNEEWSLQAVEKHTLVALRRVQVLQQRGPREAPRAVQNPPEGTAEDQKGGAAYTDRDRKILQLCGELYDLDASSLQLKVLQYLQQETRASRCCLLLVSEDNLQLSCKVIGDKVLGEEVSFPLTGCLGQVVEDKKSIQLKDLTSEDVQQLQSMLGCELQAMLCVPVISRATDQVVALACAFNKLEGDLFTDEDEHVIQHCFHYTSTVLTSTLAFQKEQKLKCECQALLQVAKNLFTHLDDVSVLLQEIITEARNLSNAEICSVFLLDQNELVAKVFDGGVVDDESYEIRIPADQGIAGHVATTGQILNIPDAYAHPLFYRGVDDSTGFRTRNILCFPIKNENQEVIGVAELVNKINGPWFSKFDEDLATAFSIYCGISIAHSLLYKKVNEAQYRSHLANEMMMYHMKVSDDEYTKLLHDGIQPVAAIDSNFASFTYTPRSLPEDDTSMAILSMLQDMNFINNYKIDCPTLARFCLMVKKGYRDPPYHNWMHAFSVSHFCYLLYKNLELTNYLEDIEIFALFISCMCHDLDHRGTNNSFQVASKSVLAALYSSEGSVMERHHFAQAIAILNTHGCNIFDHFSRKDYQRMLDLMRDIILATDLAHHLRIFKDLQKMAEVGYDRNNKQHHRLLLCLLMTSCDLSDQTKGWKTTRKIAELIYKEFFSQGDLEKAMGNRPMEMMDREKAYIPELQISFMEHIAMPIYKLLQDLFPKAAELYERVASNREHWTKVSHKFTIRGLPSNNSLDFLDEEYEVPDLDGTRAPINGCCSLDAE
UniProt Q9NP56: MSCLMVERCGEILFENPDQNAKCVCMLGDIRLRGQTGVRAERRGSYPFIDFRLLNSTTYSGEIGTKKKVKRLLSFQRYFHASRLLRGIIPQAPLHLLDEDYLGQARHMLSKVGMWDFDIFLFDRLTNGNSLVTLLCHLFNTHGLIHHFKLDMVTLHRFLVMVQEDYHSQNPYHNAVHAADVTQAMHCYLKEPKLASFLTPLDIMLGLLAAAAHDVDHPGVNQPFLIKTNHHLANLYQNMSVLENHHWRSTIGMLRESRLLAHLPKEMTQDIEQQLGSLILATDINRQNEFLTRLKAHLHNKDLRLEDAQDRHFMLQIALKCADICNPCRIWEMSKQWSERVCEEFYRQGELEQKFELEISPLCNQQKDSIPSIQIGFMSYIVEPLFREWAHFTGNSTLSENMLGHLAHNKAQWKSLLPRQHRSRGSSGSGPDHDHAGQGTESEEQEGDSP
UniProt Q13370: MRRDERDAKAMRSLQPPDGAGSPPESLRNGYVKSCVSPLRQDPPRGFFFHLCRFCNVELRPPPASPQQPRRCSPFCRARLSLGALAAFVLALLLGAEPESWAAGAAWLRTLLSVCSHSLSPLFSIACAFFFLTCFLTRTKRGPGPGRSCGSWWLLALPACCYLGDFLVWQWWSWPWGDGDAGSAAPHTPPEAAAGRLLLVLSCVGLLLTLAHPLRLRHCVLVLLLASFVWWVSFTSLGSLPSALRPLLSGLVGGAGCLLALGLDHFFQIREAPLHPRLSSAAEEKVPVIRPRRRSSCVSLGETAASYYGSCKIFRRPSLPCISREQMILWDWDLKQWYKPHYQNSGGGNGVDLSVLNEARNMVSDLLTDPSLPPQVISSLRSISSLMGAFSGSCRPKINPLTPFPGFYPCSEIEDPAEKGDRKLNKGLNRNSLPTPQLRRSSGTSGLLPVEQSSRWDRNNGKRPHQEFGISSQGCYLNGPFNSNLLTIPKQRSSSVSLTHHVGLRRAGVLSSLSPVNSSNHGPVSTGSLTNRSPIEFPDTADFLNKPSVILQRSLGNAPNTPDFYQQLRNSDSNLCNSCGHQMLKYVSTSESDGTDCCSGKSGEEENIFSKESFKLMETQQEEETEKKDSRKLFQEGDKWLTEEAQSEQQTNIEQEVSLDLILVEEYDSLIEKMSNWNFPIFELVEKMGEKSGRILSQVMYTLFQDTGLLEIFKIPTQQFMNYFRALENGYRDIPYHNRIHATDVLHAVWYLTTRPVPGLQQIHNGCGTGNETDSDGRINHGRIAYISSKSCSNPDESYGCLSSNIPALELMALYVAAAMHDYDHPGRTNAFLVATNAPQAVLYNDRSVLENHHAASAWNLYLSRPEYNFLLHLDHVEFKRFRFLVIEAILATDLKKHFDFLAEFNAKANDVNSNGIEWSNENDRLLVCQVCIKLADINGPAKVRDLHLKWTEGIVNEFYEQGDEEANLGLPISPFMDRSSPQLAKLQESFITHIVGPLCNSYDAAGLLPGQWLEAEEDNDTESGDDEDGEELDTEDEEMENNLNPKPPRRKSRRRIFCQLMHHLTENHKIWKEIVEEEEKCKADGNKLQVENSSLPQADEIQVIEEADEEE
UniProt Q9Y233, 1-779 isoform Q9Y233-1: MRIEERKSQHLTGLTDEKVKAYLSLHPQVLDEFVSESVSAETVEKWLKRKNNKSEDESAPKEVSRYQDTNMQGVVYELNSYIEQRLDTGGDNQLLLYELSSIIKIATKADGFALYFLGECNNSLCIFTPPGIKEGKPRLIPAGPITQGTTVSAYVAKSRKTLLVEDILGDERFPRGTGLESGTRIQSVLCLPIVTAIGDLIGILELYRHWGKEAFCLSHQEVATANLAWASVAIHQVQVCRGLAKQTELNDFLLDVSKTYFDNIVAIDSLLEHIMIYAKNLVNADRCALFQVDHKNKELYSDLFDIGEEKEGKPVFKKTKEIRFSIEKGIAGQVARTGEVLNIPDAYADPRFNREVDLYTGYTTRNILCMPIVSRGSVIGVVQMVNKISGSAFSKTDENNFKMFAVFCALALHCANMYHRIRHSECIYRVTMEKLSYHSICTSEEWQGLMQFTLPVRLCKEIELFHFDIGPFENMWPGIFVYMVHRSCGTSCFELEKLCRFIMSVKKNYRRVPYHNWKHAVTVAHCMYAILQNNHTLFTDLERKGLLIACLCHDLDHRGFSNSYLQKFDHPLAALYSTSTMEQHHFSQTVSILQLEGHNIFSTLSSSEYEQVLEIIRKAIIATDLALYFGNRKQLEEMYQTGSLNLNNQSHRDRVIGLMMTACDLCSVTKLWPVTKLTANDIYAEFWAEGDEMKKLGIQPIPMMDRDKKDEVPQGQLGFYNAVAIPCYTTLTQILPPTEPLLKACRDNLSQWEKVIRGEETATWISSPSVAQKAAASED

One data set deals with hPDE9A (Homo sapiens, UniProt O76083). Description: biochemical.
In a further data set the target is hPDE2A (Homo sapiens, UniProt O00408). Briefly: biochemical.
The next data set addresses hPDE7B (Homo sapiens, UniProt Q9NP56). To be noted: Fl-cAMP substrate.
The next data set concerns the target hPDE3B (Homo sapiens, UniProt Q13370). The following applies: Fl-cAMP substrate.
The target in the next data set is hPDE10A (Homo sapiens, UniProt Q9Y233). To be noted: Fl-cAMP substrate.
Data set [1] deals with conditioned avoidance responding in male Wistar rats. Briefly: Conditioned avoidance response (CAR). To be noted: CAR paradigm.

Molecules are shown by their SMILES. Counter-ions that a name gives are not always drawn. Some results are limits rather than exact numbers.

As to `CN1C(=O)c2c(nn(Cc3ccc(-c4cccc(F)n4)cc3)c2Nc2ccccc2)N2C1=N[C@@H]1CCC[C@@H]12` [ITI-214, (6aR,9aS)-2-(4-(6-fluoropyridin-2-yl)benzyl)-5-methyl-3-(phenylamino)-5,6a,7,8,9,9a-hexahydrocyclopenta-[4,5]imidazo[1,2-a]pyrazolo[4,3-e]pyrimidin-4-(2H)-one phosphate salt], the Ki at hPDE9A is above 10000 nM; at hPDE2A, above 10000 nM; on hPDE7B it was 360 nM; on hPDE3B, 3100 nM; at hPDE10A it was 1800 nM.
`Cc1nc2n(c(=O)c1CCN1CCC(c3noc4cc(F)ccc34)CC1)CCCC2` [Risperidone, reference compound]: the “effect on number of escape failures” value in data set [1] is “Neither risperidone nor ITI-214 had significant effects”.

By Ki is commonly meant a measure of affinity in units of concentration, obtained from inhibition or displacement. Higher therefore signals weaker binding.
